Molecular target: NLRP3 inflammasome (Homo sapiens (Human), UniProt Q96P20)
Assay: Evaluation of NLRP3 inflammasome inhibitory activity (inhibition of IL-1β production in THP1-Null cells, LPS/Nigericin)

Chains of the proteins cited; added tags and fusions are not shown.
UniProt Q96P20, whole entry: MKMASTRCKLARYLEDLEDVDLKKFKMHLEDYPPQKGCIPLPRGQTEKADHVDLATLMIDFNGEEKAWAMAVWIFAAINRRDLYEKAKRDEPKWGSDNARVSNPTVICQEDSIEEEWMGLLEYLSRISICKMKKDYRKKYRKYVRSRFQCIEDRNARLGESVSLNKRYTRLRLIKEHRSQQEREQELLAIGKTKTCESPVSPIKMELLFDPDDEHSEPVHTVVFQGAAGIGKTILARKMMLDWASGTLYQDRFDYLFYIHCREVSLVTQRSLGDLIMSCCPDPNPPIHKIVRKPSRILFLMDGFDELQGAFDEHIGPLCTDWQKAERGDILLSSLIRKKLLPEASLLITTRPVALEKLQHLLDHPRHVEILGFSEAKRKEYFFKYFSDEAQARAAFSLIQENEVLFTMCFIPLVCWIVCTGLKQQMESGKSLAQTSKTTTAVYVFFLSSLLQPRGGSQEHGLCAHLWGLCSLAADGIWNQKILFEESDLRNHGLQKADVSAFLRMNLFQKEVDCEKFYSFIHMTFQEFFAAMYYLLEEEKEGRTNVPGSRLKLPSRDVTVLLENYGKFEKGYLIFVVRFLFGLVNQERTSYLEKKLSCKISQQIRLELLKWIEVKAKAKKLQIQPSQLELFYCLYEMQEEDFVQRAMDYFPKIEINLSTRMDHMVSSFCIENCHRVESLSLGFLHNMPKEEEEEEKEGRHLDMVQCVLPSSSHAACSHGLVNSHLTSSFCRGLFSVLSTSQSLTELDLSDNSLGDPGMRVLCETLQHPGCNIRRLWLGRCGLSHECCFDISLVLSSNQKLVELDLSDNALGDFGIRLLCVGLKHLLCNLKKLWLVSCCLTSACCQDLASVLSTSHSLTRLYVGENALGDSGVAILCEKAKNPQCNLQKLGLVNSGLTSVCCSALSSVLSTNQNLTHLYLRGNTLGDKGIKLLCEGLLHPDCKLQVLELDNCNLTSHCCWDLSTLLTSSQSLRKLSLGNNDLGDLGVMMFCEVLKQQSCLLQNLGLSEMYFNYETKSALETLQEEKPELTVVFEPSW

Row | SMILES | IC50
1 | Cc1nnc(C2(C)CCN(S(=O)(=O)NC(=O)c3coc(Nc4cc(C(F)(F)F)ccc4C)n3)CC2)o1 | 720 nM
2 | CCC(=O)N(C)C1COCCN(S(=O)(=O)NC(=O)c2coc(Nc3cc(C(F)(F)F)ccc3C)n2)C1 (racemic) | 110 nM
3 | Cc1nn(C(C)C)c(C)c1Nc1nc(C(=O)NS(=O)(=O)N2CCCOCC2)co1 | 2700 nM

Molecules with a lower IC50, results first:

Row | IC50 | SMILES
4 | 89 nM | CCCS(=O)(=O)N1CCCN(S(=O)(=O)NC(=O)c2coc(Nc3c(C)ccc(C)c3C)n2)CC1
5 | 17 nM | COC[C@@H]1CCN(S(=O)(=O)NC(=O)c2coc(Nc3cc(C(F)(F)F)ccc3C)n2)CCO1
6 | 48 nM | COc1ccnc(N2CCCN(S(=O)(=O)NC(=O)c3coc(Nc4cc(C(F)(F)F)ccc4C)n3)CC2)n1
7 | 26 nM | CCS(=O)(=O)C1CCCN(S(=O)(=O)NC(=O)c2coc(Nc3cc(C(F)(F)F)ccc3C)n2)CC1 (racemic)

From patent publication US20230399319A1, “Acylsulfamide Compound and Pharmaceutical Use Therefor” (Japan Tobacco Inc., priority 2019, published 2023)
